This is an account of results in BindingDB's records for doi:10.1016/0024-3205(85)90028-1 (Universit&Eacute, 1985).

Protein sequences, listed by entry. Tags and fused reporters are not part of them.
UniProt P61169, whole entry: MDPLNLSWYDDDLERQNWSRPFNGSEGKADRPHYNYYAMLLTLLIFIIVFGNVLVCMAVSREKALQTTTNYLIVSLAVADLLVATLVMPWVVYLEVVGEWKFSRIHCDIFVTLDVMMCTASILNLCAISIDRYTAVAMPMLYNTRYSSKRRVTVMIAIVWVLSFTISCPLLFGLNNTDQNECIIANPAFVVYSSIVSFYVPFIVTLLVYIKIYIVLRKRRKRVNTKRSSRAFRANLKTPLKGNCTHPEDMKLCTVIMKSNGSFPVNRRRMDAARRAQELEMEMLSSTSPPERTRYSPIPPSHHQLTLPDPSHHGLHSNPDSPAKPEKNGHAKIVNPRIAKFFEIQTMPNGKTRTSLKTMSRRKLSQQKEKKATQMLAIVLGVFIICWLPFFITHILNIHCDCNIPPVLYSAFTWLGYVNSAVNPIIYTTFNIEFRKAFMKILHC

Structures are written as SMILES. pKi: −log10 of the molar value.

This assay has as its target D(2) dopamine receptor (Rattus norvegicus, UniProt P61169).

One may read the pKi as −log10 of the Ki, conventionally taken in molar units. In the case of `NCCc1c[nH]c2ccc(O)cc12` [[3H]-5-HT], the pKi is less than 5.00.
